Among the data in PubChem BioAssay AID1468 (National Center for Advancing Translational Sciences (NCATS), 2008) are activity, negative = inhibition values, retold here.

Chains of the proteins cited; added tags and fusions are not shown. Residues count along the entry.
UniProt P10636, 561-689 P618L limits assumed: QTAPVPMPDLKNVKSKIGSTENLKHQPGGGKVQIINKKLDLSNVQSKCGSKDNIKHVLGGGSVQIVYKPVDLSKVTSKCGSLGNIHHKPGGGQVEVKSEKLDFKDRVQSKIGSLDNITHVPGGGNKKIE

The entries are a selection whose mix differs from that of the whole data set. Records with an inconclusive call do not appear. Activity calls are given as the source filed them. Calls follow the shape of the dose curve; as a rule, active = well fitted inhibition curve with a large enough effect; inconclusive = small, poorly fitted or top-dose-only effect, or effect the other way; inactive = flat fitted curve, though single readings scatter.
% is scaled to controls: 0 for no effect and ±100 for the full control effect.

The target of this assay is Microtubule-associated protein tau (Homo sapiens) (UniProt P10636). Briefly: qHTS for Inhibitors of Tau Fibril Formation, Fluorescence Polarization. Also: nearly all actives have a fitted effect of over 55% in size. To be noted: K18 P301L tau heparin fibrillization, Alexa594 FP, 6 h; at 57.7 µM (top of the series). An excerpt:
NIH Molecular Libraries Probe Production Network [MLPCN]
NIH Chemical Genomics Center [NCGC]
Assay Provider: Carlo Ballatore, University of Pennsylvania
The microtubule-associated protein tau is an abundant protein in the axons of neurons that stabilizes microtubules. With its ability to modulate microtubule dynamics, tau contributes directly or indirectly, to key structural and regulatory cellular functions. Particularly important is the influence tau exerts on axonal transport, which allows signaling molecules, trophic factors and other essential cellular constituents to travel along the axons. Under pathological conditions, tau becomes sequestered into insoluble aggregates called neurofibrillary tangles. This phenomenon is believed to have pathological consequences by promoting axonal transport deficits that ultimately lead to synaptic dysfunction and neuronal loss. […]
For screening, 2 uL/well human K18 P301L (15 uM unlabeled and 0.24 uM Alexa 594-labeled tau final concentrations) in reagent buffer (100 mM sodium acetate pH 7) was dispensed into black solid 1536-well plates (Grenier) using a solenoid-based dispenser. […] After a 1 hr ambient incubation, the plates were read by an Envision (Perkin Elmer) to monitor Alexa 594 FP (555 nm excitation and 632 nm emission). […]
(qHTS replaces the single test concentration by a dilution series.)
Regarding `CN(CCCl)CCCl`, the activity, negative = inhibition is inactive: -8.95%.
